Earlier results in patent publication US20100197717A1, “COMBINATION OF A 5HT7 RECEPTOR LIGAND AND AN OPIOID RECEPTOR LIGAND” (priority 2007, published 2010).

Chains of the proteins cited; added tags and fusions are not shown.
UniProt P34969, whole entry: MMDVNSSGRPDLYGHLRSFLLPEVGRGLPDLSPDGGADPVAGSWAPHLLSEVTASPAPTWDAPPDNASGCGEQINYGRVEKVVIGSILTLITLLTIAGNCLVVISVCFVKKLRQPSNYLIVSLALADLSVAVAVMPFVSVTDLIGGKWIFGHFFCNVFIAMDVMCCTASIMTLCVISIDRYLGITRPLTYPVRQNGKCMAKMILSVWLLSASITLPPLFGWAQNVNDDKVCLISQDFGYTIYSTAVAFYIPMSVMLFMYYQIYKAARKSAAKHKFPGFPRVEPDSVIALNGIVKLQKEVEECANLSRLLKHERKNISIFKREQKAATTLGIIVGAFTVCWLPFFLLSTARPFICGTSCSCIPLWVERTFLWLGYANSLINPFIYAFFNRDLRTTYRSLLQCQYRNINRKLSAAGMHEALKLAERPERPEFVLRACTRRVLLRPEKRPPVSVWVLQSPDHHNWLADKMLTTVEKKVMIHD
UniProt P08908, whole entry: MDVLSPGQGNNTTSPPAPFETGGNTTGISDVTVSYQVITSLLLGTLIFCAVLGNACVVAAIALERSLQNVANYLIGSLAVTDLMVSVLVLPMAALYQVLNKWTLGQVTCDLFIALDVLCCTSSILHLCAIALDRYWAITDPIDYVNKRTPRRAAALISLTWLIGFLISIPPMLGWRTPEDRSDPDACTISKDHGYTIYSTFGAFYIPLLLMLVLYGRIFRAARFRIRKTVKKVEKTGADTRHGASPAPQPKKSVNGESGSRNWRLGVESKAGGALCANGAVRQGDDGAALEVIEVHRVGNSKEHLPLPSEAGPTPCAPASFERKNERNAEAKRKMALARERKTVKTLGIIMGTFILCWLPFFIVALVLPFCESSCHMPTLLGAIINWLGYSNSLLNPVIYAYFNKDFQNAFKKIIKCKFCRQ

Key:
5HT7 receptor = 5HT7 receptor (Homo sapiens, UniProt P34969); conditions: statement in the definitions; cited from earlier work
5-HT1A receptor = 5-HT1A receptor (Homo sapiens, UniProt P08908); conditions: statement in the description; cited from earlier work

With NCCc1c[nH]c2ccc(C(N)=O)cc12 [5CT, 5-carboxamidotryptamine] as the compound, how does the “agonist classification on the 5-HT7 receptor” value (5HT7 receptor) read?
Its value is “Full agonists”.

With CCCN(CCC)C1CCc2cccc(O)c2C1 (centres unmarked) [8-OH-DPAT] as the compound, how does the “affinity for the 5-HT1A receptor compared with 5-HT7” value (5-HT1A receptor) read?
Its value is “clearly higher affinity”.
